According to patent US7192924B2, “Corticotropin releasing factor 2 receptor agonists” (priority 2002, dated 2007):
pEC50: −log10 of the molar value. Read-outs that look alike come from different tables or passages of the source.

How the values were obtained:
CRF1R = biological target: T1, CRF1R (Homo sapiens, UniProt P34998); experiment: CRF1R agonist activity (EC50, Emax), called comparative CRF binding; type: cell-based
T1 sequence (P34998 24-415): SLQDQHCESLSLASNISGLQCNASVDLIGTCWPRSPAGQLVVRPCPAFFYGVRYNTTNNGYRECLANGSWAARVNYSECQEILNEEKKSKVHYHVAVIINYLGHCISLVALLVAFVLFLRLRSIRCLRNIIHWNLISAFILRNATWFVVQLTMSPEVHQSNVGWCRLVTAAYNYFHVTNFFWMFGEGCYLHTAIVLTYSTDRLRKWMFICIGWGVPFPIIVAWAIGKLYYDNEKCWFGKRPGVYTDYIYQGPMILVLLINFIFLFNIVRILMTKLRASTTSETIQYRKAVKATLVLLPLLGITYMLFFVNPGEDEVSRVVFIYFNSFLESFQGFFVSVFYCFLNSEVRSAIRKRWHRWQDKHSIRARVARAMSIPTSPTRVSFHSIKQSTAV
Text: (§1) The pharmacological activity and selectivity of the peptides of present invention can be determined using published test procedures. See, e.g, U.S. patent application Ser. No. 09/799,978. Because CRF2R and CRF1R are homologous proteins, it is expected that a certain proportion of agonists for CRF2R will also function as agonists of CRF1R. As discussed above, activation of CRF1R induces activation of the HPA axis since increased corticosteroid production leads to skeletal muscle atrophy. In most cases in which an increase in muscle mass or function is desired, it is not desirable to activate the HPA axis.
(§2) Because it is desirable to discriminate binding between CRF2R, as compared with CRF1R, the assays described above may be conducted using a cell, or membrane from a cell, which expresses only CRF2R or the assays can be conducted with a recombinant source of CRF2R. Cells expressing both forms of CRFR may be modified using homologous recombination to inactivate or otherwise disable the CRF1R gene. Alternatively, if the source of CRFR contains more than one CRFR type, the background signal produced by the receptor which is not of interest must be subtracted from the signal obtained in the assay. […] Known antagonists of CRFRs include, but, are not limited to, antalarmin (CRF1R selective), antisauvagine-30 (CRF2R selective) and astressin (nonselective for CRF1R/CRF2R).
(§3) Cell-based assays include the steps of contacting cells which express CRF1R or CRF2R with a peptide of the present invention or control and measuring activation of the CRFR by measuring the expression or activity of components of the CRFR signal transduction pathways.
(§4) As described in the background section above, CRFRs appear to couple through several different pathways including Gαs, Gαq or Gαi, depending upon the cell type. It is thought that agonist activation of CRFR allows the receptor to signal via any of these pathways, provided that the necessary pathway components are present in the particular cell type. Thus, to assay a particular peptide of the present invention for CRFR activation, an assay can use any of the signal transduction pathways as the readout even if the relevant cell type for treatment, in vivo, couples CRFR to skeletal muscle atrophy via a different pathway. […] Assays for measuring activation of these signaling pathways are known in the art.
(§5) For example, after contact with a peptide of the present invention, lysates of the cells can be prepared and assayed for induction of cAMP. cAMP is induced in response to Gαs activation. Because Gαs is activated by receptors other than CRFR and because a test peptide may be exerting its effect through CRFRs or by another mechanism, two control comparisons are relevant for determining whether the peptide increases levels of cAMP via activation of a CRFR. One control compares the cAMP level of cells contacted with the peptide and the cAMP level of cells contacted with a control compound (i.e., the vehicle in which the peptide is dissolved).
(§6) In one example, cAMP induction is measured with the use of DNA constructs containing the cAMP responsive element linked to any of a variety of reporter genes can be introduced into cells expressing CRFRs. Such reporter genes include, but are not limited to, chloramphenicol acetyltransferase (CAT), luciferase, glucuronide synthetase, growth hormone, fluorescent proteins (e.g., Green Fluorescent Protein), or alkaline phosphatase. Following exposure of the cells to the peptide, the level of reporter gene expression can be quantitated to determine the peptide's ability to increase cAMP levels and thus determine the peptide's ability to activate the CRFR.
(§7) In addition to using cells expressing full length CRFRs, cells can be engineered which express CRFRs containing the ligand binding domain of the receptor coupled to, or physically modified to contain, reporter elements or to interact with signaling proteins.

CRF2R = biological target: T2, CRF2R (Homo sapiens, UniProt Q13324); experiment: CRF2R agonist activity (EC50, Emax), called comparative CRF binding; type: cell-based
T2 sequence (Q13324 1-411): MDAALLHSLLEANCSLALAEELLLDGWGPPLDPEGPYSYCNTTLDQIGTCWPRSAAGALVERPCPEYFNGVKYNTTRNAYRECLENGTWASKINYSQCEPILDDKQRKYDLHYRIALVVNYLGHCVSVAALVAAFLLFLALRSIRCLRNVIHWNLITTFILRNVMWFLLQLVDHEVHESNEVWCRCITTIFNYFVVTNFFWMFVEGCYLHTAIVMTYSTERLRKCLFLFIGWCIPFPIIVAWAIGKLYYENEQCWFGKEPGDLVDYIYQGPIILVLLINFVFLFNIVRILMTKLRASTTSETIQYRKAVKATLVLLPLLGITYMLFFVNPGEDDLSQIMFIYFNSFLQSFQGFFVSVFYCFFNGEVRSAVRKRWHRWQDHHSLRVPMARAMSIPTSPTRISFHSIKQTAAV
Text: as §1, §2, §3, §4, §5, §6, §7

CC[C@H](C)[C@H](NC(=O)[C@@H](NC(=O)[C@H](CC(=O)O)NC(=O)[C@H](CC(C)C)NC(=O)[C@H](CC(C)C)NC(=O)[C@H](CC(C)C)NC(=O)[C@H](CCCNC(=N)N)NC(=O)[C@H](CC(N)=O)NC(=O)[C@H](CC(N)=O)NC(=O)[C@H](C)NC(=O)[C@H](C)NC(=O)[C@H](CCC(N)=O)NC(=O)[C@H](CCC(N)=O)NC(=O)[C@H](CCCCN)NC(=O)[C@H](CCC(=O)O)NC(=O)[C@H](CCCCN)NC(=O)[C@H](CCC(=O)O)NC(=O)[C@H](CCC(N)=O)NC(=O)[C@H](CCCCN)NC(=O)[C@H](CCC(=O)O)NC(=O)[C@@H](NC(=O)[C@H](CCC(=O)O)NC(=O)[C@@H](NC(=O)[C@H](CCSC)NC(=O)[C@H](CCCCN)NC(=O)[C@H](CCCNC(=N)N)NC(=O)[C@H](CC(C)C)NC(=O)[C@H](CC(C)C)NC(=O)[C@H](CCC(=O)O)NC(=O)[C@@H](NC(=O)[C@@H]1CCCN1C(=O)[C@H](CC(C)C)NC(=O)[C@H](CC(=O)O)NC(=O)[C@@H](NC(=O)[C@H](CO)NC(=O)[C@@H](NC(=O)[C@@H]1CCCN1C(=O)[C@@H]1CCCN1C(=O)CNC(=O)[C@@H]1CCC(=O)N1)[C@@H](C)CC)[C@@H](C)CC)[C@@H](C)O)[C@@H](C)CC)[C@@H](C)CC)[C@@H](C)O)C(N)=O [compound 71]
pEC50 (CRF1R): < 7.00
pEC50 (CRF2R): 7.02

CC[C@H](C)[C@H](NC(=O)[C@H](CCC(=O)O)NC(=O)[C@@H](NC(=O)[C@H](CCSC)NC(=O)[C@H](CCCCN)NC(=O)[C@H](CCCNC(=N)N)NC(=O)[C@H](CC(C)C)NC(=O)[C@H](CC(C)C)NC(=O)[C@H](Cc1ccc(O)cc1)NC(=O)[C@H](CC(C)C)NC(=O)[C@@H]1CCCN1C(=O)[C@H](CC(C)C)NC(=O)[C@H](CC(=O)O)NC(=O)[C@@H](NC(=O)[C@H](CO)NC(=O)[C@@H](NC(=O)[C@@H]1CCCN1C(=O)[C@@H]1CCCN1C(=O)CNC(=O)[C@@H]1CCC(=O)N1)[C@@H](C)CC)[C@@H](C)CC)[C@@H](C)CC)C(=O)N[C@@H](CCC(=O)O)C(=O)N[C@@H](CCCCN)C(=O)N[C@@H](CCC(N)=O)C(=O)N[C@@H](CCC(=O)O)C(=O)N[C@@H](CCCCN)C(=O)N[C@@H](CCC(=O)O)C(=O)N[C@@H](CCCCN)C(=O)N[C@@H](CCC(N)=O)C(=O)N[C@@H](CCC(N)=O)C(=O)N[C@@H](C)C(=O)N[C@@H](C)C(=O)N[C@@H](CC(N)=O)C(=O)N[C@@H](CC(N)=O)C(=O)N[C@@H](CCCNC(=N)N)C(=O)N[C@@H](CC(C)C)C(=O)N[C@@H](CC(C)C)C(=O)N[C@@H](CC(C)C)C(=O)N[C@@H](CC(=O)O)C(=O)N[C@H](C(N)=O)[C@@H](C)O [compound 81]
pEC50 (CRF1R; read-out: CRF1R EC50): 7.22
pEC50 (CRF2R; read-out: CRF2R EC50): 8.37

CC[C@H](C)[C@H](NC(=O)[C@H](CCCNC(=N)N)NC(=O)[C@H](C)NC(=O)[C@H](CC(C)C)NC(=O)[C@H](CC(C)C)NC(=O)[C@H](CCCNC(=N)N)NC(=O)[C@H](C)NC(=O)[C@H](CC(N)=O)NC(=O)[C@H](CC(N)=O)NC(=O)[C@H](C)NC(=O)[C@H](C)NC(=O)[C@H](CCC(N)=O)NC(=O)[C@H](CCC(N)=O)NC(=O)[C@H](CCCCN)NC(=O)[C@H](CCC(=O)O)NC(=O)[C@H](CCCCN)NC(=O)[C@H](CCC(=O)O)NC(=O)[C@H](CCC(N)=O)NC(=O)[C@H](CCCCN)NC(=O)[C@H](CCC(=O)O)NC(=O)[C@@H](NC(=O)[C@H](CCC(=O)O)NC(=O)[C@@H](NC(=O)[C@@H](NC(=O)[C@H](CCCCN)NC(=O)[C@H](CCCNC(=N)N)NC(=O)[C@H](CC(C)C)NC(=O)[C@H](CC(C)C)NC(=O)[C@H](Cc1ccc(O)cc1)NC(=O)[C@@H](NC(=O)[C@@H]1CCCN1C(=O)[C@@H](NC(=O)[C@H](CC(=O)O)NC(=O)[C@@H](NC(=O)[C@H](CO)NC(=O)[C@@H](NC(=O)[C@@H]1CCCN1C(=O)[C@@H]1CCCN1C(=O)CNC(=O)[C@@H]1CCC(=O)N1)[C@@H](C)CC)[C@@H](C)CC)C(C)C)[C@@H](C)CC)C(C)C)[C@@H](C)CC)[C@@H](C)CC)C(N)=O [compound 379]
pEC50 (CRF1R): ≤ 6.00
pEC50 (CRF2R): 7.15

CC[C@H](C)[C@H](NC(=O)[C@@H](NC(=O)[C@H](C)NC(=O)[C@H](CC(C)C)NC(=O)[C@H](CC(C)C)NC(=O)[C@H](CC(C)C)NC(=O)[C@H](C)NC(=O)[C@H](CC(N)=O)NC(=O)[C@H](CC(N)=O)NC(=O)[C@H](C)NC(=O)[C@H](C)NC(=O)[C@H](CCC(N)=O)NC(=O)[C@H](CCC(N)=O)NC(=O)[C@H](CCCCN)NC(=O)[C@H](CCC(=O)O)NC(=O)[C@H](CCCCN)NC(=O)[C@H](CCC(=O)O)NC(=O)[C@H](CCC(N)=O)NC(=O)[C@H](CCCCN)NC(=O)[C@H](CCC(=O)O)NC(=O)[C@@H](NC(=O)[C@H](CCC(=O)O)NC(=O)[C@@H](NC(=O)[C@H](CCSC)NC(=O)[C@H](CCCCN)NC(=O)[C@H](CCCNC(=N)N)NC(=O)[C@H](CC(C)C)NC(=O)[C@H](CC(C)C)NC(=O)[C@H](Cc1c[nH]cn1)NC(=O)[C@H](Cc1ccccc1)NC(=O)[C@@H]1CCCN1C(=O)[C@H](CC(C)C)NC(=O)[C@H](CC(=O)O)NC(=O)[C@@H](NC(=O)[C@H](CO)NC(=O)[C@@H](NC(=O)[C@@H]1CCCN1C(=O)[C@@H]1CCCN1C(=O)CNC(=O)[C@@H]1CCC(=O)N1)[C@@H](C)CC)[C@@H](C)CC)[C@@H](C)CC)[C@@H](C)CC)[C@@H](C)O)C(N)=O [compound 229]
pEC50 (CRF1R): 6.53
pEC50 (CRF2R): 7.99

CC[C@H](C)[C@H](NC(=O)[C@@H](NC(=O)[C@H](CC(=O)O)NC(=O)[C@H](CC(C)C)NC(=O)[C@H](CC(C)C)NC(=O)[C@H](CC(C)C)NC(=O)[C@H](CCCNC(=N)N)NC(=O)[C@H](CC(N)=O)NC(=O)[C@H](CC(N)=O)NC(=O)[C@H](C)NC(=O)[C@H](C)NC(=O)[C@H](CCC(N)=O)NC(=O)[C@H](CCC(N)=O)NC(=O)[C@H](CCCCN)NC(=O)[C@H](CCC(=O)O)NC(=O)[C@H](CCCCN)NC(=O)[C@H](CCC(=O)O)NC(=O)[C@H](CCC(N)=O)NC(=O)[C@H](CCCCN)NC(=O)[C@H](CCC(=O)O)NC(=O)[C@@H](NC(=O)[C@H](CCC(=O)O)NC(=O)[C@@H](NC(=O)[C@H](CCSC)NC(=O)[C@H](CCCCN)NC(=O)[C@H](CCCNC(=N)N)NC(=O)[C@H](CC(C)C)NC(=O)[C@H](CC(C)C)NC(=O)[C@@H](NC(=O)[C@H](CCC(N)=O)NC(=O)[C@@H]1CCCN1C(=O)[C@H](CC(C)C)NC(=O)[C@H](CC(=O)O)NC(=O)[C@@H](NC(=O)[C@H](CO)NC(=O)[C@@H](NC(=O)[C@@H]1CCCN1C(=O)[C@@H]1CCCN1C(=O)CNC(=O)[C@@H]1CCC(=O)N1)[C@@H](C)CC)[C@@H](C)CC)C(C)C)[C@@H](C)CC)[C@@H](C)CC)[C@@H](C)O)C(N)=O [compound 197]
pEC50 (CRF2R; read-out: CRF2R EC50): 7.32
